The values that follow come from ChEMBL document CHEMBL1151499, “Synthesis of a piperidinomethylthiophene derivative as H2-antagonist with inhibitory activity against Helicobacter pylori” (Bioorg Med Chem Lett, 1996).

The chains behind the UniProt entries cited, without tags or fusion partners.
UniProt P47747, whole entry: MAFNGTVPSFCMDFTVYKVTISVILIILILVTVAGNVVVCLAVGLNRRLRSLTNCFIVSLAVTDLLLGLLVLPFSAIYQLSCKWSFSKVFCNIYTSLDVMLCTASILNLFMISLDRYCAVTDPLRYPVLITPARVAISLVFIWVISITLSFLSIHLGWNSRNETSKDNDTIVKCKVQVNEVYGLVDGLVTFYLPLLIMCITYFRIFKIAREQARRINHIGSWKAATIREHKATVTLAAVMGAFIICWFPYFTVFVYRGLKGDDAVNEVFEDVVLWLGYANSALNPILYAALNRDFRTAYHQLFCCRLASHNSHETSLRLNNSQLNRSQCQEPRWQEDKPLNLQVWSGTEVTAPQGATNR

The target of the assay is Histamine H2 receptor (Cavia porcellus, UniProt P47747). Nature of the assay: Histamine H2 receptor antagonistic activity. It is filed as functional.

pIC50: −log10 of the molar value.

Take `CN/C(=N/CCSCc1nc[nH]c1C)NC#N` [CIMETIDINE]: the pIC50 (in general, the negative decadic logarithm of the IC50, by convention in mol/L) is 4.83.
